{"source": "patent US20240208896A1", "about": "“PRODRUGS OF KV7 CHANNEL OPENERS” (Xyzagen, Inc., priority 2021, published 2024)", "system": "mouse maximal electroshock (MES) assay", "assay": "Mouse MES assay with plasma and brain concentration, Compound 29 oral", "assay_type": "in vivo, CF-1 mouse", "conditions": "male CF-1 mice; oral 30 mg/kg; 0.25, 0.5 and 1 h", "text": "Each male CF-1 mouse provided one data point in the MES assay and one data point in the concentration analysis. There were 8 mice per time point."}
{"smiles": "CCNC(=O)CC[C@H](N)C(=O)Nc1cc(NCc2ccc(F)cc2)ccc1NC(=O)OCC.Cl", "note": "[Compound 29]", "values": [{"measurement": "Pharmacological response in MES assay", "value": "Pharmacological response reduced in tandem to the decrease in brain concentrations"}]}
